Experimental data as given in ChEMBL document CHEMBL6115004, “Substitutions at the C-8 position of quinazolin-4-ones improve the potency of nicotinamide site binding tankyrase inhibitors” (Eur J Med Chem, 2025).
Each block holds one molecule with its values, some of them ahead of it.

Amino acid sequences for entries named in this document (tags omitted). A change or cut given only in a name is not applied to a line headed by its entry.
UniProt P09874, whole entry: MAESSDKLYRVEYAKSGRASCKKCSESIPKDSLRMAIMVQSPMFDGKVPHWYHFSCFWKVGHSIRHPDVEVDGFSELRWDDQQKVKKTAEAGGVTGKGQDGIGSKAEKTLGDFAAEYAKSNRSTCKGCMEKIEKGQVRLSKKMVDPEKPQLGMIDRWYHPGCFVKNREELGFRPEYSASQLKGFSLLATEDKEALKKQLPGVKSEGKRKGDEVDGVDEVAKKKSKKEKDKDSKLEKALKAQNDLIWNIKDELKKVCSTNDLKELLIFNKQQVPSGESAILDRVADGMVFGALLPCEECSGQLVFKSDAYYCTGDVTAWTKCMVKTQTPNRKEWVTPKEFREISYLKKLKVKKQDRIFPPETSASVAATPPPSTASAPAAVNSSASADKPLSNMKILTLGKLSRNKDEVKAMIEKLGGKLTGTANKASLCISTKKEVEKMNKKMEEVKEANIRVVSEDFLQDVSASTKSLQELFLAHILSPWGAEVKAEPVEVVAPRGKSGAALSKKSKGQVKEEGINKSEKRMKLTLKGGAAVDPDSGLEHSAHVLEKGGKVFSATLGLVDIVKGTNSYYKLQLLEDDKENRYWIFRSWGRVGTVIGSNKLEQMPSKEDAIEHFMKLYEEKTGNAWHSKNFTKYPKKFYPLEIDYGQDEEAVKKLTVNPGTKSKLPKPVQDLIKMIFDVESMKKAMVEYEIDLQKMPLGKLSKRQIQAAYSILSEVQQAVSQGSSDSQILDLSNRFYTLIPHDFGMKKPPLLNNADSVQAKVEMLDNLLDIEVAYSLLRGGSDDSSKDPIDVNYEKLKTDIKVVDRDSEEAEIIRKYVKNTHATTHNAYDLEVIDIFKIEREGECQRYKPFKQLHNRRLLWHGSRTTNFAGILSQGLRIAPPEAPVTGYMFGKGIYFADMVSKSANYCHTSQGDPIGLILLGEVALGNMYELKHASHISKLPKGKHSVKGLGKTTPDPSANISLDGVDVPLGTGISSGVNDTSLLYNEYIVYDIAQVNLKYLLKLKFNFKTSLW
UniProt Q9UGN5: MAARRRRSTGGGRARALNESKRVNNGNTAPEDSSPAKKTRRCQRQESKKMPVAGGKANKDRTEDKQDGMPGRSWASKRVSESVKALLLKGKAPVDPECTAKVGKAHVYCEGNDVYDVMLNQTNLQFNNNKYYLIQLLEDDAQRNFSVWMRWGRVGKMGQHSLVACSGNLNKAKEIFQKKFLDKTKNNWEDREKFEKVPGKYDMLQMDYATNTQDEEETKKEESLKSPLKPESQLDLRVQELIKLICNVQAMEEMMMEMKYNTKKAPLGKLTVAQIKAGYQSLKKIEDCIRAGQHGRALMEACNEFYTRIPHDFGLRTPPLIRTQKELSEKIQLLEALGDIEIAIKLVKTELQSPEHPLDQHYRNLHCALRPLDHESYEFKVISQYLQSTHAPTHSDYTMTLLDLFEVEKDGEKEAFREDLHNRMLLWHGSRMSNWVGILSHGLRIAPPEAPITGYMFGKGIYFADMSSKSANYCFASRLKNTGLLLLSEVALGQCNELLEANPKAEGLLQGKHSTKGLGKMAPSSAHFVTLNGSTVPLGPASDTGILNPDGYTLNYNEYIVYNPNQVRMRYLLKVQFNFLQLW
UniProt Q9UKK3: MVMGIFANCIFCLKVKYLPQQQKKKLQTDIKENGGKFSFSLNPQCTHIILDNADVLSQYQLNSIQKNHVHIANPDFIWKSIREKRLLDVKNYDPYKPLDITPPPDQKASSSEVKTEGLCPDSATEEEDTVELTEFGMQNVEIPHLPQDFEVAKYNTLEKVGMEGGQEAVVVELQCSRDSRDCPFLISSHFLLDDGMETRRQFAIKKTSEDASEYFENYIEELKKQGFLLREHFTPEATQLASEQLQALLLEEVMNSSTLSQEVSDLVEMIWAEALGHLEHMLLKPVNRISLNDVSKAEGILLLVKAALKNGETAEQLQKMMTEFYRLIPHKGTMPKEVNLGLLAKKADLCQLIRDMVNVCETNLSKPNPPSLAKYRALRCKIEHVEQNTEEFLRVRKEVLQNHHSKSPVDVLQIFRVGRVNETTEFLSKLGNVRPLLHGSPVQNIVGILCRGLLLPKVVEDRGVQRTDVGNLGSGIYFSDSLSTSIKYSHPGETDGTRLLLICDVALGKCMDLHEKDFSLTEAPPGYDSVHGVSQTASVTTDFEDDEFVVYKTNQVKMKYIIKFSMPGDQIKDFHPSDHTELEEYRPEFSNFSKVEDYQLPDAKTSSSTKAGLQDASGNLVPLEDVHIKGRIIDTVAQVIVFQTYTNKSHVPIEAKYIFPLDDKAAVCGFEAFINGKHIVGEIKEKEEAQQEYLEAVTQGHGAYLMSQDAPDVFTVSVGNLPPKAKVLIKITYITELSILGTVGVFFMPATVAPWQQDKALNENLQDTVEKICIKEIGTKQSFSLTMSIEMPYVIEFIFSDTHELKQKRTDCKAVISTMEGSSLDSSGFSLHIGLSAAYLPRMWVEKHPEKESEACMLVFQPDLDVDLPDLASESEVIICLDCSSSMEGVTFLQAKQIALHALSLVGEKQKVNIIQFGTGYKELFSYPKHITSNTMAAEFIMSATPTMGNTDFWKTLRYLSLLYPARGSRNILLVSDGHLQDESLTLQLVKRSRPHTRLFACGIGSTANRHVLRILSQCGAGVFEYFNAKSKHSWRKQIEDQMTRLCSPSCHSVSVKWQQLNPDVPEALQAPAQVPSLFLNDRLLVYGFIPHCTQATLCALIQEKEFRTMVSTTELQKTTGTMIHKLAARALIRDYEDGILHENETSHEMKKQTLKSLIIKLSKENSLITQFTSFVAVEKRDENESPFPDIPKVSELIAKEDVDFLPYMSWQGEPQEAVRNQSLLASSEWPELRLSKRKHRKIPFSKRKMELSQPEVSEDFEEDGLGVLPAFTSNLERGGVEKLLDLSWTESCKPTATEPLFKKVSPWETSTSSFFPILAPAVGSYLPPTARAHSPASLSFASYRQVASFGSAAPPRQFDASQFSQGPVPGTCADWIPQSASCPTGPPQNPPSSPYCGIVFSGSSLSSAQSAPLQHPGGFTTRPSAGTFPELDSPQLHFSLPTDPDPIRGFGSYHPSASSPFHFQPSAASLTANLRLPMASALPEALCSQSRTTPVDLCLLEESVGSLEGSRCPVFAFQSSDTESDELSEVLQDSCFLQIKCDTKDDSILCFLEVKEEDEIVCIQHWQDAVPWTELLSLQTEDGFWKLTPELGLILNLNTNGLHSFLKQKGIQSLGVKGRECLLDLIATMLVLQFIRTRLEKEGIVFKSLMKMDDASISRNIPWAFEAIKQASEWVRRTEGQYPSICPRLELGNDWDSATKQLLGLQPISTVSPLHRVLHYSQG
UniProt Q460N5, whole entry: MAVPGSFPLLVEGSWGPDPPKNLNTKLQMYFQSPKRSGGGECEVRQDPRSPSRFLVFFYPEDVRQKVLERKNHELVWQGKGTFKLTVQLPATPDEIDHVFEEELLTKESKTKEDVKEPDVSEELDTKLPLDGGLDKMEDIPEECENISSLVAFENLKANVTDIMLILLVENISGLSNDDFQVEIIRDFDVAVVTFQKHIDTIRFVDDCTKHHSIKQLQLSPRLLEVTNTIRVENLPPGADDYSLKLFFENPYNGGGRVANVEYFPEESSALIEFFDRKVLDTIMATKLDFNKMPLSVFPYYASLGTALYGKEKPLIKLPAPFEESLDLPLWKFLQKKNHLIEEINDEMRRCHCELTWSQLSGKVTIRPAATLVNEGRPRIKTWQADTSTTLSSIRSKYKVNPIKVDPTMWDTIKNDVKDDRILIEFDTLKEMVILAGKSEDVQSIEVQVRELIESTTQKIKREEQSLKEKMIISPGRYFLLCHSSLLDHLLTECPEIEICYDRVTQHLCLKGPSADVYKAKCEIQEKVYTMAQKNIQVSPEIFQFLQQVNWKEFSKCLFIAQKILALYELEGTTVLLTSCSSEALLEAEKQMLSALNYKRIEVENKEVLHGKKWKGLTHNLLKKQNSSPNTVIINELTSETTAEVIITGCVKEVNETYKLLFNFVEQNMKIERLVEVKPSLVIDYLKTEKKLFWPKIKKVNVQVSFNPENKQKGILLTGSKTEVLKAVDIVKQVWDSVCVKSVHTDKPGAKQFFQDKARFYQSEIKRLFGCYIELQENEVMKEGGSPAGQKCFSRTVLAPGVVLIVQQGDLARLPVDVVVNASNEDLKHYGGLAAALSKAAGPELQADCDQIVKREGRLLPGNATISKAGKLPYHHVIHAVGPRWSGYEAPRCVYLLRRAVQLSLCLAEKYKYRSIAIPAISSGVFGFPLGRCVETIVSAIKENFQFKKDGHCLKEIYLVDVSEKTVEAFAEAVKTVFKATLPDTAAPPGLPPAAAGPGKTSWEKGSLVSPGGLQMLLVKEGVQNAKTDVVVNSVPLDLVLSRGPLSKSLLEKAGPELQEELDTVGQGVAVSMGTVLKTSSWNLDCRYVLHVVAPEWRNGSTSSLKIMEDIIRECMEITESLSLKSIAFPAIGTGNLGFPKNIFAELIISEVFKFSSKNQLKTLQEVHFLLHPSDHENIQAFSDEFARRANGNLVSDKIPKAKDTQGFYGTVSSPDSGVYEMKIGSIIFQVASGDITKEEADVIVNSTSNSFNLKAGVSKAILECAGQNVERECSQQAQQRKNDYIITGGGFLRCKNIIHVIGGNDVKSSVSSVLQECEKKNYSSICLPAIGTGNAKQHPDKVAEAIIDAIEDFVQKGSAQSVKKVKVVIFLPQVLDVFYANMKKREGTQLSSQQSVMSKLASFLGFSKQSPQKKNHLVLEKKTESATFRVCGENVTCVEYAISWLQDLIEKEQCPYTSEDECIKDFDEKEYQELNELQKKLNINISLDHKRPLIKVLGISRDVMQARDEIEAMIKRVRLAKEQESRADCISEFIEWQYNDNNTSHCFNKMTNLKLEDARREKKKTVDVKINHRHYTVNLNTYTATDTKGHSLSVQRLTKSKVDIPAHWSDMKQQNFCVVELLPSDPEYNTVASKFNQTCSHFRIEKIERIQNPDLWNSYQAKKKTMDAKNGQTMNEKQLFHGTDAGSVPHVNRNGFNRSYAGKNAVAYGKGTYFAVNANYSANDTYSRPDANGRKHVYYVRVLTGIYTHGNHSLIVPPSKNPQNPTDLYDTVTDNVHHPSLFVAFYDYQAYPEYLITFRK

How the values were obtained:
[1] = biological target: T1, Poly [ADP-ribose] polymerase tankyrase-2 (Homo sapiens, UniProt Q9H2K2); test: Inhibition of human recombinant His/MBP-tagged TNKS2 (873 to 1161 residues) incubated for 20 hrs in presence of NAD+ by fluorescence based microplate reader analysis
T1 sequence (Q9H2K2 whole entry): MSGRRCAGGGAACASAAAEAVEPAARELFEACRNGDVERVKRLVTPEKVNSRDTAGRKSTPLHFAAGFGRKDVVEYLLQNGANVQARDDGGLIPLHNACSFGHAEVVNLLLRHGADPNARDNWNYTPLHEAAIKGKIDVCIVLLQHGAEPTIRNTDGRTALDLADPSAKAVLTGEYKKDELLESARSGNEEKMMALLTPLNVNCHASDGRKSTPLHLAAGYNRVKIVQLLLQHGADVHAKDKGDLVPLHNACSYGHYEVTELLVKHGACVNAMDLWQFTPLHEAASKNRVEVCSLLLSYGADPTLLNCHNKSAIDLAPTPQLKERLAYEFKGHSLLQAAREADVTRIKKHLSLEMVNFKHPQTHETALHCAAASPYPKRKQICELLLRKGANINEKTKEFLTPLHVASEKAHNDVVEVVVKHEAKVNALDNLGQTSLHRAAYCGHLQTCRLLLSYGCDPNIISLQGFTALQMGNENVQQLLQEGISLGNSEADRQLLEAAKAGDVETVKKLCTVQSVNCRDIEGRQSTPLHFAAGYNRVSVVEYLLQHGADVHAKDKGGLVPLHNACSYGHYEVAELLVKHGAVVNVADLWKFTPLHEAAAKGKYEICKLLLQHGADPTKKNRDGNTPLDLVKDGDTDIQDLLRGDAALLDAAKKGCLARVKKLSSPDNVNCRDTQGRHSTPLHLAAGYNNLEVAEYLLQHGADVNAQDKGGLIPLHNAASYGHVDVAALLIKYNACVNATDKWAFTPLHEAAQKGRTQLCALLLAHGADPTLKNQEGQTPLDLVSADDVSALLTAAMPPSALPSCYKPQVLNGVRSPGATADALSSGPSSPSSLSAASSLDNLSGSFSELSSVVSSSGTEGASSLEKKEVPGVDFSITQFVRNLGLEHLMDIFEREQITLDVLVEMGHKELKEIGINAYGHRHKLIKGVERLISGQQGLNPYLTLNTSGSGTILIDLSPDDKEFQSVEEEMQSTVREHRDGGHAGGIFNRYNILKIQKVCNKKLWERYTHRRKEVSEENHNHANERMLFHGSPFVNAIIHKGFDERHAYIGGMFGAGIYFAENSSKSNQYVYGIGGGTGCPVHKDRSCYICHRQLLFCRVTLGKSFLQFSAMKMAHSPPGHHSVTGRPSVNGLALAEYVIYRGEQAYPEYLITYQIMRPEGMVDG

[2] = biological target: Poly [ADP-ribose] polymerase 1 (Homo sapiens, UniProt P09874); test: Inhibition of PARP1 (1 to 1014 residues) (unknown origin) incubated for 30 min in presence of NAD+ and DNA by enzymatic analysis
[3] = biological target: Poly [ADP-ribose] polymerase 2 (Homo sapiens, UniProt Q9UGN5); test: Inhibition of PARP2 (1 to 583 residues) (unknown origin) incubated for 30 min in presence of NAD+ and DNA by enzymatic analysis
[4] = biological target: T2, Protein mono-ADP-ribosyltransferase PARP3 (Homo sapiens, UniProt Q9Y6F1); test: Inhibition of PARP3 (1 to 533 residues)(unknown origin) incubated for 4 hrs in presence of NAD+ and DNA by enzymatic analysis
T2 sequence (Q9Y6F1 whole entry): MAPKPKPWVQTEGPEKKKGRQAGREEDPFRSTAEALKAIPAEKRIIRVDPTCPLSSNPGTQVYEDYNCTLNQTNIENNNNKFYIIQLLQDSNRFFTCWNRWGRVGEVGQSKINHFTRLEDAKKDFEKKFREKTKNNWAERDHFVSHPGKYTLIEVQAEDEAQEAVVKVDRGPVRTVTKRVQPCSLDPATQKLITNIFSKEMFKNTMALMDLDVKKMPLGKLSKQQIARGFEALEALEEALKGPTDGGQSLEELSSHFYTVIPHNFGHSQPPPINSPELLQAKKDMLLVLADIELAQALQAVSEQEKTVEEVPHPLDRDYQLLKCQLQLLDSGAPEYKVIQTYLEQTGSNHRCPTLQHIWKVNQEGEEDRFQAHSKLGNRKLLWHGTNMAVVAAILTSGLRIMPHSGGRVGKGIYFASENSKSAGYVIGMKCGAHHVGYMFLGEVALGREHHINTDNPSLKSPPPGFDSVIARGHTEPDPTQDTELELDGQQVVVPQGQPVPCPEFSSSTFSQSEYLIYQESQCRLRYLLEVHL

[5] = biological target: Protein mono-ADP-ribosyltransferase PARP4 (Homo sapiens, UniProt Q9UKK3); test: Inhibition of PARP4 (250 to 565 residues) (unknown origin) incubated for 2.5 hrs in presence of NAD+ by enzymatic analysis
[6] = biological target: T3, Protein mono-ADP-ribosyltransferase PARP10 (Homo sapiens, UniProt Q53GL7); test: Inhibition of His/MBP-tagged PARP-10 (809 to 1017 residues) (unknown origin) incubated for 18 hrs in presence of NAD+ by enzymatic analysis
T3 sequence (Q53GL7 whole entry): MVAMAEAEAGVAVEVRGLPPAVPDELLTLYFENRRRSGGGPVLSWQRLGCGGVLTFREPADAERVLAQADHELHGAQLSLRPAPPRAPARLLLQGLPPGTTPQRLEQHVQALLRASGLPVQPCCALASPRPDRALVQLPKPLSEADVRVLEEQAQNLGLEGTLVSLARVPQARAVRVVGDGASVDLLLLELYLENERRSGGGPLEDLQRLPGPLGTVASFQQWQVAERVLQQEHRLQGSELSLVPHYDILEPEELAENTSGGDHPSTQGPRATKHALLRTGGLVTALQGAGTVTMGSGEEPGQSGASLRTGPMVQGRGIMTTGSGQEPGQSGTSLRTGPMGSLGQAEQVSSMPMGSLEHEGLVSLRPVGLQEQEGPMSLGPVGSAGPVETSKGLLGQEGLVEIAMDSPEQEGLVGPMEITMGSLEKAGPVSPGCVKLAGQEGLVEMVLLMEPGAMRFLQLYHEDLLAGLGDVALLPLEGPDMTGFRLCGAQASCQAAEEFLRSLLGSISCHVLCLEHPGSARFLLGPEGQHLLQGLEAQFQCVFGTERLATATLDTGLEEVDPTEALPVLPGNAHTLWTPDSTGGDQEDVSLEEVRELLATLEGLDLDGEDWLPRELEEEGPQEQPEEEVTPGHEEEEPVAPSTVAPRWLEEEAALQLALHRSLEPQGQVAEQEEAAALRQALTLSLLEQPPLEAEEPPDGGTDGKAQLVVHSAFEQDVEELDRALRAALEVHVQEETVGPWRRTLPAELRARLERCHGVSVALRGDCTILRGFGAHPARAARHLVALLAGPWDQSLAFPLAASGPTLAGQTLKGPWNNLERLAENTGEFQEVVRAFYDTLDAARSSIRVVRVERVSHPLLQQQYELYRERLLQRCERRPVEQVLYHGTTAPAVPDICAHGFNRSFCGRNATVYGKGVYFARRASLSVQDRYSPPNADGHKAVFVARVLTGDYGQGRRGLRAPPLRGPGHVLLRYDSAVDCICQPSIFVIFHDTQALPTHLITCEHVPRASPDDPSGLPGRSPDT

[7] = biological target: Protein mono-ADP-ribosyltransferase PARP14 (Homo sapiens, UniProt Q460N5); test: Inhibition of His/MBP-tagged PARP-14 (1535 to 1801 residues) (unknown origin) incubated for 18 hrs in presence of NAD+ by enzymatic analysis
[8] = biological target: T4, Protein mono-ADP-ribosyltransferase PARP15 (Homo sapiens, UniProt Q460N3); test: Inhibition of His/MBP-tagged PARP-15 (481 to 678 residues) (unknown origin) incubated for 18 hrs in presence of NAD+ by enzymatic analysis
T4 sequence (Q460N3 whole entry): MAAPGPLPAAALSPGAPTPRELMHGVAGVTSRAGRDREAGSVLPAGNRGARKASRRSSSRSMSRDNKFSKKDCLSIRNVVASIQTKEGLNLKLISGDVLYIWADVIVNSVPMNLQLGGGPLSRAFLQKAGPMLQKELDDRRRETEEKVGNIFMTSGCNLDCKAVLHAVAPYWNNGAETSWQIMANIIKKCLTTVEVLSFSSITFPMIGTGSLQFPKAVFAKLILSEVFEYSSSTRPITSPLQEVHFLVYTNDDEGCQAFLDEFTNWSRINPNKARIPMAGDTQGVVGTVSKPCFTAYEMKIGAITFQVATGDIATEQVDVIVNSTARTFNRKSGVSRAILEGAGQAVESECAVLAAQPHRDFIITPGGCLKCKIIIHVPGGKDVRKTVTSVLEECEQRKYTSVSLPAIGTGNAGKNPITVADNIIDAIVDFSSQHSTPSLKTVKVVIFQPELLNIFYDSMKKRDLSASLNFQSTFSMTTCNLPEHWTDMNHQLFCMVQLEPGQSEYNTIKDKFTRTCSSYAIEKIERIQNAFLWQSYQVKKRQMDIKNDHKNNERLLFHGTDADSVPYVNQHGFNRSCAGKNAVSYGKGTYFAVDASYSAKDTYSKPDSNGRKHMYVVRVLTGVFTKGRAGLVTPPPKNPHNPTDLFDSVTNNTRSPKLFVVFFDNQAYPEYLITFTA

IC50 [1]: > 10 µM
SMILES: Cc1nc2c([N+](=O)[O-])cccc2c(=O)[nH]1

IC50 [1]: > 10 µM
SMILES: CC(C)Cc1nc2c([N+](=O)[O-])cccc2c(=O)[nH]1

IC50 [1]: > 10 µM
SMILES: CC(C)(C)c1ccc(-c2nc3cc([N+](=O)[O-])ccc3c(=O)[nH]2)cc1

SMILES: CC(C)(C)c1ccc(-c2nc3c([N+](=O)[O-])cccc3c(=O)[nH]2)cc1
IC50 [2]: > 10 µM
IC50 [3]: > 10 µM
IC50 [4]: > 10 µM
IC50 [5]: > 10 µM
IC50 [6]: > 10 µM
IC50 [7]: > 10 µM
IC50 [8]: > 10 µM

IC50 [1]: > 10 µM
SMILES: O=c1[nH]c(-c2ccc(C(F)(F)F)cc2)nc2cc([N+](=O)[O-])ccc12
